From patent US20190314361A1 (Athenex Therapeutics Limited, priority 2018, published 2019) come the findings set out here.

The conditions of this data set: cancer subjects; preliminary data, 6 subjects at 270 mg per day for 2 days and 2 subjects at 274 mg/m^2 daily for 2 days, with 15 mg Compound A; vs 80 mg/m^2 IV.

As to `CC(=O)O[C@H]1C(=O)[C@@]2(C)[C@H]([C@H](OC(=O)c3ccccc3)[C@]3(O)C[C@H](OC(=O)[C@H](O)[C@@H](NC(=O)c4ccccc4)c4ccccc4)C(C)=C1C3(C)C)[C@]1(OC(C)=O)CO[C@@H]1C[C@@H]2O` [Paclitaxel, 5,20-Epoxy-1,2,4,7,10-13-hexahydroxytax-11-en-9-one-4,10-diacetate 2-benzoate 13-ester with (2R,3S)—N-benzoyl-3-phenylisoserine], the “bioavailability of orally administered paclitaxel” value was “approximately 13.4%”.
